Earlier results as cited in patent US9402826B2, “Neuronal pain pathway modulators” (The Trustees of Columbia University in the City of New York, priority 2006, dated 2016).

Target: PKA (Homo sapiens, UniProt P17612)
Conditions: cited from earlier work

Measured: IC50

O=C(NC1CCCC1OC(=O)c1cc(O)c(C(=O)c2c(O)cccc2C(=O)O)c(O)c1)c1ccc(O)cc1 (stereo not drawn) [reference compound]
0.03 µM: read-out: IC50 PKA from literature, Series B, Table 2 | read-out: PKA activity (IC50), Table 1, from Lai et al. 1997 | read-out: PKA inhibition (IC50), Table 3, same values given as from literature in Table 2

Where two headings read alike, the source gives them in different places.
